# AlphaSeq binding of Ab-14 light chain variants to a spike HR2 peptide

Values reported by Li et al. 2023, doi:10.1038/s41467-023-39022-2 (FLAb copy).

Target: peptide PDVDLGDISGINAS, taken from heptad repeat 2 (HR2) of SARS-CoV-2 spike.

Parent: Ab-14, a human scFv built as VH, a 15-residue (Gly4Ser)3 linker, VL. Only the CDRs of the light chain vary.
VH: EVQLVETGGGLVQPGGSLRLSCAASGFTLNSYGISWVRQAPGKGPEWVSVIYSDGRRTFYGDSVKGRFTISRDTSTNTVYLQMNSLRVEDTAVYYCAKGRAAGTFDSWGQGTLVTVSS
VL: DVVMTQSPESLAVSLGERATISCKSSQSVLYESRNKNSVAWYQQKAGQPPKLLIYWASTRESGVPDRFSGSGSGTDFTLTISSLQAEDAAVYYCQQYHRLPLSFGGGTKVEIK

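Phage display of a naive human antibody library on the peptide gave the parent. These sequences belong to a second round, designed from the earlier measurements on random variants of the parent. Group labels follow the data file (Ctrl: baseline library sampled from a position-specific scoring matrix, with some repeated check sequences; En: ensemble of fine-tuned language models; GP: Gaussian process model; HC: hill climbing; Gen: genetic algorithm; Gibbs: Gibbs sampling; a sequence that several methods proposed may carry one label only). In AlphaSeq, yeast of one mating type display the scFv and yeast of the other type display the target. Mating (16 h, 30 °C) was followed by selection of diploids and sequencing of their barcodes. Read counts were normalised to the haploid input and turned into Kd by a linear fit to BCL2-family pairs of known affinity, for each replicate. The assay was run in six technical replicates.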

Variants are written as CDR1, CDR2 and CDR3 of the light chain (limits as in the source). Parent: KSSQSVLYESRNKNSVA, WASTRES, QQYHRLPLS. The read-out is the apparent dissociation constant on a log10 scale (nM): the lower, the stronger. The mean shown is taken over the replicates in which the pair was detected. A pair that was not seen in that replicate is written "nd"; this usually means weak binding, but a binder can also be missed. The authors' rule: three or more of the six replicates give a measured affinity, fewer mean a poor binder. A sequence measured in both rounds can read differently, since the two assays cover different ranges. Empty control strains, which show no peptide, gave a signal in 4% of pairings with all light chain designs; the median was 2.64 and 95% of these signals were weaker than 1.59. No background was subtracted.

CDR-L1,CDR-L2,CDR-L3,group,"replicates, log10 nM","mean, log10 nM"
HVSQLLTDEMYREYNVA,ETSHVEE,QQYERLPLI,En_Gibbs,2.65 2.02 1.85 1.47 2.37 1.75,2.02
KIGGVTNGISVSKNSVA,EQSTRED,QQYNRLPLS,En_HC,0.20 0.17 0.34 0.04 0.00 0.45,0.20
KLQQSVLYESRNKNSVA,EASTREM,QQYHRLPLS,GP_Gen,-0.22 -0.21 -0.43 -0.34 -0.32 -0.17,-0.28
HLSMLSHVEMGTKNNVA,QMETRES,QQYDRLPLS,En_Gen,0.24 0.34 0.46 0.00 0.12 -0.05,0.18
KLMQSELYESRNKNSVA,NASTRED,QQYHRLPLS,GP_Gen,0.03 0.16 -0.18 -0.06 -0.09 -0.14,-0.05
KLSQSVPYESRNKNSVA,NASTREK,QQYHRLPLS,GP_Gen,0.58 0.44 0.43 0.42 0.59 0.57,0.51
MISNVMNTLTRVGNNVA,DLSEREN,QQYFRLPLS,En_Gen,1.44 1.27 0.95 nd 1.18 1.52,1.27
IVSQLMLWGWSAKNSIA,EAVTRLN,QQYDRLPLI,En_Gen,nd 2.05 2.27 1.55 nd nd,1.95
KSEQSQEYESRNKNSVA,HASTRED,QQYHRLPLS,GP_HC,0.90 nd 1.78 0.92 0.48 0.60,0.93
VSSQSVLYESRNKNSVA,WASTLES,QQYHRLPLS,Ctrl,nd nd nd nd nd nd,nd
TLYGLSMSMSKNKNSVA,EMTTREK,QQYDRLPLI,En_Gen,0.50 0.70 0.45 0.54 0.64 0.45,0.55
KMPQSHLYESRNKNSVA,NASTRES,QQYHRLPLS,GP_Gen,-0.06 0.02 -0.20 0.00 -0.12 0.01,-0.06
TISQLMHYESRNKNNVA,GTSTRES,QCYHRLPLS,En_HC,1.35 0.93 1.15 1.01 1.08 1.56,1.18
HVDQVKYDQKTAQNNIA,SGAERVW,QQYSRLPFS,En_Gibbs,-0.26 -0.33 -0.29 -0.18 -0.41 -0.13,-0.27
SMFEKEYEELQVEDNIA,DATERMV,QQYFRLPLL,En_Gibbs,1.09 2.27 0.85 0.80 1.30 1.65,1.33
KLEDSNRWNYRDTNAVA,QASTRAA,QQYQRLPFL,En_Gibbs,0.67 0.42 0.67 0.42 0.63 0.48,0.55
HITYGMMVHGRHMESIA,QAEERAK,QQYDRLPLS,En_Gen,0.77 0.91 0.90 0.64 0.66 0.62,0.75
TISNSFMMENQFKNSVA,QASTREQ,QCYDRLPLS,En_HC,2.62 nd 1.67 2.25 1.66 3.60,2.36
KSSQSVLYESRWKNSVA,WASTRES,QQYHRLPLS,Ctrl,2.31 2.34 nd nd 2.30 1.97,2.23
IISQVDAYESRNKSSIA,DQSTRGS,QQYDRLPLS,En_HC,1.31 1.15 1.44 2.19 1.50 1.44,1.51
KFSQSWLYESRNKNSVA,DASQRES,QQYHRLPLS,GP_Gen,-0.31 -0.32 -0.33 -0.46 -0.46 -0.24,-0.35
KLSQSDLYESRNKWSVA,NASTRES,QQYHRLPLS,GP_Gen,0.04 -0.07 -0.20 -0.30 -0.09 -0.09,-0.12
KFMQSDLYESRNQNNVA,DASTRMS,QQYHRLPLS,GP_Gibbs,-0.29 -0.45 -0.48 -0.66 -0.38 -0.29,-0.43
KFAEQIMHVYQGANAIA,DATNKSA,QQYLRLPLM,En_Gibbs,1.07 1.07 0.29 0.56 0.63 0.71,0.72
KISTQIPEFEMWDNAIA,EATLRET,QHYQRLPLS,En_Gibbs,1.29 nd 2.56 1.62 0.51 1.56,1.51
KSSQSVLYESRNKFSVA,WASTRIS,FQYHRLPLS,Ctrl,nd nd nd nd nd nd,nd
KLLATVMNETRNRNNVA,HMTTRED,QQYHRLPLS,En_HC,1.44 1.69 1.33 0.98 1.18 2.11,1.45
KIGMTLNQLMHQKQNVA,DLVMREN,QQYFRLPLS,En_Gen,0.31 1.36 0.27 1.01 1.89 0.60,0.91
KSSQSVLYEARNKNSVA,WASTRES,QQYHRLPLS,Ctrl,nd nd nd 2.39 1.95 1.92,2.09
KFSDSVLLESRTKNSVA,EASTRES,QQYHRLPLS,GP_HC,-0.21 -0.05 -0.30 -0.26 -0.36 -0.09,-0.21
KLSQSVWMESRNKWNVA,SASYRES,QQYHRLPLS,GP_Gibbs,0.46 0.36 0.21 0.24 0.31 0.29,0.31
MFSQGVMVGWLTRNSVA,NSSTRES,QQYDRLPLS,En_HC,1.12 1.85 1.06 nd nd 1.32,1.34
HLSQSVLYESRNKNSVA,NASTRMV,QQYHRLPLS,GP_Gen,0.08 -0.12 -0.09 -0.23 -0.27 -0.18,-0.14
KSSQSVLYESRNKNSVA,TASTRES,QQYHRLPLS,Ctrl,2.18 1.65 1.29 2.02 2.01 3.15,2.05
MLSSVLHMHGVKKNSIA,DLVLRAN,QQYHRLPLS,En_Gen,2.32 1.77 2.69 1.56 2.35 2.30,2.16
KSSQSVLYESRNANSVA,WASTREC,QQYHRLPLS,Ctrl,nd nd nd nd nd nd,nd
KSSQSVLYESRNKNSVA,YASEREG,QQYHREPLS,Ctrl,nd nd nd nd nd 1.92,1.92
TFNLEYMGMMKDHNSIA,ETEHKTP,QQYFRLPIS,En_Gibbs,nd nd nd nd nd nd,nd
KVFMELAEDKASTRNIA,DASMHCA,QQYVRLPLG,En_Gibbs,1.63 0.71 1.02 1.61 0.71 0.86,1.09
KLMQSMPYESRNKNSVA,NASTRES,QQYHRLPLS,GP_Gen,1.24 1.04 1.05 0.76 0.88 1.38,1.06
ALYSTGYQVDSQMQAIA,DGHERIS,QQYFRLPLN,En_Gibbs,-0.07 0.36 0.09 0.01 0.15 0.54,0.18
KISQSWLYESTNKNSVA,GASTRES,QQYHRLPFM,Ctrl,0.55 0.80 0.49 1.01 0.10 0.40,0.56
KLHQSQGYESRNINSVA,NASQRCS,QQYHRLPLS,GP_Gibbs,0.28 0.24 -0.14 0.00 0.10 0.21,0.11
SSSSSVLYESRNKNSVA,SASTRES,QQYHRLPLL,Ctrl,0.74 0.50 0.47 0.75 0.55 0.45,0.58
RIQMGDLEGRTAWNNIA,NMEELYR,QQYVRLPLY,En_Gibbs,0.77 0.51 0.79 0.11 1.02 0.72,0.66
MISQLYNMGTFAINSVA,QASIRNL,QQYDRLPLM,En_Gen,2.44 2.26 nd nd nd 2.99,2.56
KLEQSVLYESRNKNSVA,NASTREK,QQYHRLPLS,GP_Gen,-0.52 -0.48 -0.30 -0.52 -0.30 -0.04,-0.36
KLSQSVLYQSRNKNSVA,NASTRES,QQYHRLPLS,GP_Gen,-0.02 -0.37 -0.30 -0.41 -0.04 -0.27,-0.24

Top 5 of the variants detected in all replicates, tightest first:

CDR-L1,CDR-L2,CDR-L3,group,"replicates, log10 nM","mean, log10 nM"
KFMQSDLYESRNQNNVA,DASTRMS,QQYHRLPLS,GP_Gibbs,-0.29 -0.45 -0.48 -0.66 -0.38 -0.29,-0.43
KLEQSVLYESRNKNSVA,NASTREK,QQYHRLPLS,GP_Gen,-0.52 -0.48 -0.30 -0.52 -0.30 -0.04,-0.36
KFSQSWLYESRNKNSVA,DASQRES,QQYHRLPLS,GP_Gen,-0.31 -0.32 -0.33 -0.46 -0.46 -0.24,-0.35
KLQQSVLYESRNKNSVA,EASTREM,QQYHRLPLS,GP_Gen,-0.22 -0.21 -0.43 -0.34 -0.32 -0.17,-0.28
HVDQVKYDQKTAQNNIA,SGAERVW,QQYSRLPFS,En_Gibbs,-0.26 -0.33 -0.29 -0.18 -0.41 -0.13,-0.27